The results in this text go back to US20140348844A1 (UCB, published 2014).

The chains behind the UniProt entries cited, without tags or fusion partners. Residues count along the entry.
UniProt P18177, 1833-2366: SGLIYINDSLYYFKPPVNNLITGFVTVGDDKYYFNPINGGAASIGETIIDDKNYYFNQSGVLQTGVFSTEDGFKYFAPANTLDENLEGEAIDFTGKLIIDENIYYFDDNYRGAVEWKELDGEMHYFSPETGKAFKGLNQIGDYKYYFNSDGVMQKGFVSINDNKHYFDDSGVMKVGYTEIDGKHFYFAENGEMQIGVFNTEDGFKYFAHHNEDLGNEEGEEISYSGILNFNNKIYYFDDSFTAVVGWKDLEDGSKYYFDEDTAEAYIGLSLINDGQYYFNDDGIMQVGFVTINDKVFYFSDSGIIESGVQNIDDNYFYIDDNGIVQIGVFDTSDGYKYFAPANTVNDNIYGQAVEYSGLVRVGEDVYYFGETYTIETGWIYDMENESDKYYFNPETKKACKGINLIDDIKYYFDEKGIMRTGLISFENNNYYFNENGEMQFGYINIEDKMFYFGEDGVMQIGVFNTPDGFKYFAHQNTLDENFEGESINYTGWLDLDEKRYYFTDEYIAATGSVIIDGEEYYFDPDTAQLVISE

The assay addresses T1, TcdB binding (TcdB1234) (Clostridium difficile ribotype 027, UniProt P18177 1833-2366).
T1 construct: also called CROPs1,2,3,4 of Toxin B
As to the kind of experiment: SPR BIAcore 3000, Mab captured on anti-human Fc, TcdB1234 in solution, purified Mab 3 point titration. (In general: SPR reads the build-up and loss of mass on a sensor chip optically.)

B1: CA164_1099.g2 (antibody, V domains shown)
VH: EVQLQESGPGLVKPSETLSLTCTVSGFSLQSYTISWVRQPPGKGLEWIAAISGGGSTYYNLPLKSRVTISRDTSKSQVSLKLSSVTAADTAVYYCTRPRWYPRSYFDYWGRGTLVTVS
VL: DVQLTQSPSFLSASVGDRVTITCKASKSISNHLAWYQEKPGKANKLLIHSGSTLQSGTPSRFSGSGSGTEFTLTISSLQPEDFATYYCQQYDEYPYTFGQGTRLEIKR
notes: also called CA1099
As to B1, the affinity, expressed as Kd, was 0.031 nM.

B2: CA164_1151.g4 (antibody, V domains shown)
VH: EVQLQESGPGLVKPSETLSLTCTVSGFSLTSYYVHWVRQPPGKGLEWMGCIRTGGNTEYQSEFKSRVTISRDTSKNQVSLKLSSVTAADTAVYYCARGNYGFAYWGQGTLVTVS
VL: AIQMTQSPSSLSASVGDRVTITCKASQNVGNNVAWYQHKPGKAPKLLIYYASNRFTGVPSRFTGGGYGTDFTLTISSLQPEDFATYYCQRVYQSTWTFGQGTKVEIK
notes: also called CA1151; CA1151.g4
Turning to B2, the Kd (usually the free concentration of one partner at which half of the binding sites on the other are occupied at equilibrium, for simple one-to-one binding) was 0.551 nM.
